scFv variants of Ab-14 (light chain) against a SARS-CoV-2 spike peptide

From the AlphaSeq antibody data of Li et al. 2023 (doi:10.1038/s41467-023-39022-2), copy in the FLAb collection.

Antigen: PDVDLGDISGINAS, a 14-residue peptide of the SARS-CoV-2 spike HR2 region.

Parent: Ab-14, a human scFv built as VH, a 15-residue (Gly4Ser)3 linker, VL. Only the CDRs of the light chain vary.
VH: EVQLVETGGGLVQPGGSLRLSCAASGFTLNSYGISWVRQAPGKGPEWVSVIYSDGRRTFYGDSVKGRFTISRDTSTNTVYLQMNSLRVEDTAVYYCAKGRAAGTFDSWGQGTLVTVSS
VL: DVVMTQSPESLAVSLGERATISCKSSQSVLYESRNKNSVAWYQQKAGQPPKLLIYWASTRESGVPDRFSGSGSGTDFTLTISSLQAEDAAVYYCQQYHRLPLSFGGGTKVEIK

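The parent was found by panning a naive human phage display library on the peptide. The variants were designed computationally from a first round of random CDR variants and then made and measured. Their group label is 14L_GP_Gen (GP: Gaussian process model; Gen: genetic algorithm; a sequence that several methods proposed may carry one label only). The assay is AlphaSeq: two haploid yeast populations carry antibody and antigen on their surface. The frequency of each diploid, read from paired DNA barcodes, reflects how well the two displayed proteins bind. The ratio of observed to expected reads was calibrated, replicate by replicate, on BCL2-family standards whose Kd was known from biolayer interferometry. Each pool was mated in six replicate cultures.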

Positions count from residue 1 of the parent VL; S25L puts L in place of S.
Scale: log10 of Kd in nM, estimated from mating counts; low values are strong binders.
The authors' rule: three or more of the six replicates give a measured affinity, fewer mean a poor binder.

changes,log10 Kd (nM) by replicate,signal with controls
S25L/V29W/L30W/W56N/T59Q,0.26 0.62 0.44 0.17 0.61 0.54,1 of 18 (2.66)
S25V/Y31G/W56E,-0.17 -0.19 -0.33 -0.42 -0.36 -0.29,2 of 18 (3.14)
S25L/V29E/K36P/W56N/E61M,-0.17 -0.62 -0.53 -0.49 -0.52 -0.32,0 of 18
S25L/S26P/W56D,-0.54 -0.62 -0.66 -0.65 -0.47 -0.43,3 of 18 (2.73)
S25L/W56H/S62Q,-0.13 -0.18 -0.44 -0.39 -0.39 -0.14,1 of 18 (2.31)
S25V/V29H/S38A/W56D,0.07 0.00 -0.02 -0.03 -0.08 0.15,1 of 18 (2.63)
S25L/S26Q/V29E/W56N/E61C/S62D,0.08 -0.01 0.06 -0.19 -0.10 0.33,0 of 18
S25V/V29D/S33D/W56N,0.05 -0.07 0.02 -0.03 0.31 0.36,1 of 18 (2.00)
S25L/L30Q/S33D/W56N/T59Q,-0.03 -0.11 -0.17 -0.37 -0.21 -0.04,1 of 18 (2.48)
S25L/S33Q/S38N/W56N,-0.40 -0.38 -0.57 -0.71 -0.67 -0.42,2 of 18 (3.01)
S25L/N35Q/W56E/T59Q,-0.01 0.02 -0.10 -0.14 -0.08 -0.02,3 of 18 (3.22)
S25L/V29E/N35M/W56N/S62D,-0.22 0.00 -0.34 -0.28 -0.26 -0.09,2 of 18 (3.41)
S25L/S33E/W56D,0.11 0.02 -0.19 0.11 -0.61 0.44,0 of 18
S25L/S26E/V29W/L30D/W56N,0.14 0.11 -0.01 -0.07 0.10 0.08,1 of 18 (2.80)
S25L/V29Y/W56N/T59Y,0.24 -0.03 0.07 0.10 0.02 0.00,1 of 18 (2.05)
S25L/S38N/W56G,-0.06 -0.34 -0.53 -0.48 -0.52 0.02,0 of 18
S25L/V29E/W56E/T59Q/S62D,0.35 -0.14 -0.05 0.29 0.01 0.38,0 of 18
S25L/Q27G/V29Q/W56N/E61L,-0.31 -0.38 -0.03 0.06 -0.65 -0.18,1 of 18 (2.14)
S25L/V29Q/S38A/W56Q/T59Q,-0.12 -0.19 -0.29 -0.34 -0.24 -0.09,2 of 18 (2.52)
S25L/V29E/L30D/W56N,0.15 0.28 0.10 0.11 0.24 0.33,1 of 18 (2.01)
S25L/N35M/W56N/S62D,0.25 0.54 0.23 0.23 0.28 0.45,3 of 18 (2.47)
S25L/V29E/W56N/S62Q,0.07 -0.07 -0.20 -0.11 -0.08 -0.02,0 of 18
S25F/S26E/S33D/W56N/T59Q,0.40 0.27 0.34 0.31 0.16 0.18,2 of 18 (2.45)
S25F/S26E/W56N/S103M,0.06 -0.32 -0.37 -0.34 -0.40 -0.42,0 of 18
S25L/S26P/V29C/W56E,0.09 0.20 0.10 -0.13 0.15 0.23,2 of 18 (2.62)
S25L/V29E/S38A/W56E/T59Q,-0.25 -0.40 -0.35 -0.50 -0.48 -0.29,1 of 18 (3.48)
S25L/S26P/W56E/E61M,0.08 0.08 -0.04 -0.07 -0.11 0.26,2 of 18 (2.19)
S25L/V29F/W56G/Q96D,-0.12 -0.20 -0.33 -0.32 -0.25 -0.24,1 of 18 (2.57)
S25L/S26Q/L30G/W56E,0.09 0.15 0.17 -0.20 -0.01 -0.09,1 of 18 (2.92)
S25L/S26W/V29E/W56N,-0.28 -0.43 -0.44 -0.43 -0.55 -0.24,0 of 18
S25L/S26P/V29M/L30G/W56N,0.11 -0.12 -0.14 -0.34 -0.13 -0.03,1 of 18 (1.78)
S25L/V29Q/L30D/W56N/E61L,-0.11 -0.15 -0.33 -0.45 -0.44 -0.03,0 of 18
S25I/S26E/S38A/W56N,-0.30 -0.48 -0.41 -0.50 -0.62 -0.45,1 of 18 (1.72)
S25L/V29W/Y31M/W56N,-0.41 -0.42 -0.33 -0.64 -0.38 -0.34,0 of 18
S25V/Q27P/V29W/S38A/W56E,0.57 0.58 0.21 0.25 0.21 0.51,1 of 18 (3.71)
S25L/S26Q/V29D/W56N/T59Y,0.28 0.47 0.04 0.16 0.34 0.41,2 of 18 (2.38)
S25L/N35A/W56N,0.20 0.05 -0.16 -0.26 -0.19 0.12,0 of 18
S25L/V29Q/S38A/W56N,-0.44 -0.44 -0.19 -0.55 -0.52 -0.31,1 of 18 (2.51)
S25L/L30Q/W56N/E61L,-0.15 -0.13 -0.39 -0.20 -0.10 -0.12,2 of 18 (3.13)
S25V/S26Y/V29H/W56N/T59Q,0.25 -0.01 -0.11 -0.31 -0.07 0.25,0 of 18
S25L/S26E/Y31V/W56N,0.01 -0.17 -0.25 -0.46 -0.20 -0.06,2 of 18 (2.66)
S25L/V29Y/K36S/W56N,0.62 0.54 0.74 0.90 0.60 0.30,1 of 18 (2.04)
S25L/K36S/W56N/S103M,0.05 -0.08 -0.13 0.11 0.03 0.14,0 of 18
S25L/S26P/V29T/W56H,-0.02 -0.08 -0.12 -0.18 -0.04 -0.05,2 of 18 (3.16)

Repeated from above, the 4 best binders with a signal in all replicates:

changes,log10 Kd (nM) by replicate,signal with controls
S25L/S26P/W56D,-0.54 -0.62 -0.66 -0.65 -0.47 -0.43,3 of 18 (2.73)
S25L/S33Q/S38N/W56N,-0.40 -0.38 -0.57 -0.71 -0.67 -0.42,2 of 18 (3.01)
S25I/S26E/S38A/W56N,-0.30 -0.48 -0.41 -0.50 -0.62 -0.45,1 of 18 (1.72)
S25L/V29E/K36P/W56N/E61M,-0.17 -0.62 -0.53 -0.49 -0.52 -0.32,0 of 18

The range of this assay differs from that of the first round, and the authors advise against merging the two.
Of ten entries with the parent sequence, four were seen in most replicates (averages 0.34 to 2.37), three in one and three in none, so single entries are noisy.
Empty control strains, which show no peptide, gave a signal in 4% of pairings with all light chain designs; the median was 2.64 and 95% of these signals were weaker than 1.59. No background was subtracted. Also given: how often the same scFv was detected with the empty control strains, with their mean in brackets.